Test results taken from publication PMC6411751, “Use of machine learning to identify novel, behaviorally active antagonists of the insect odorant receptor co-receptor (Orco) subunit” (Scientific Reports, 2019).

Amino acid sequences for entries named in this document (tags omitted).
UniProt Q7QCC7, whole entry: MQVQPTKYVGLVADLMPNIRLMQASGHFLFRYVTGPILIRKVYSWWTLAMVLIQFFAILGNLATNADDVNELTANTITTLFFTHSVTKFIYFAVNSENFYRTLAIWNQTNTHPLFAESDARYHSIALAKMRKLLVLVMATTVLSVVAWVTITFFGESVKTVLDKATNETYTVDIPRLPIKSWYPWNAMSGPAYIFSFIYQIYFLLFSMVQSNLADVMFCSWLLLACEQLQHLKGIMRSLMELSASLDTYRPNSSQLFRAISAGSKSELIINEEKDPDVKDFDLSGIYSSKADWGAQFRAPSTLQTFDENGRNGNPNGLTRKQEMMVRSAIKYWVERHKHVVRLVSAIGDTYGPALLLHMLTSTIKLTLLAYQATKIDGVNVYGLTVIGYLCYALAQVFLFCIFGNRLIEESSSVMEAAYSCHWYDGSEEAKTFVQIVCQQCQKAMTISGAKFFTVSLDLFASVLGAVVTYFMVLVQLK

Target: Agam\Orco (Anopheles gambiae, UniProt Q7QCC7)
Conditions: Table S1; training actives; Agam\Orco activated by 30 µM OLC12; mean ± SEM (n = 3-8)

**Q.** With CCc1ccccc1NC(=O)/C=C/c1cccs1 as the compound, how does the IC50 read?
**A.** 143 µM
